## Cyclic peptide permeability, from CycPeptMPDB

Source: CycPeptMPDB (Li et al. 2023), which took these values from Comeau et al. 2021, doi:10.1021/acs.jmedchem.0c02036.

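The data file gives no further conditions (lipid, pH, time, direction or concentration), and values from different papers need not be comparable. Other peptides of the study may be missing here. Peptides that the database sets to -10, its floor, are left out.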

PAMPA is the parallel artificial membrane permeability assay, which has no cells and reads passive diffusion.
Caco-2: transport across a human colon carcinoma cell monolayer.
Permeability is in 10^-6 cm/s, converted from the database's log10 values; higher is more permeable.

CC(C)CN1CC(=O)N[C@@H](Cc2ccccc2)C(=O)NCC[C@H](C)CC(=O)N[C@@H](C)C1=O has PAMPA 1.1 × 10^-6 cm/s and Caco-2 27 × 10^-6 cm/s.
CC(C)CN1CC(=O)N[C@@H](C)C(=O)N[C@@H](Cc2ccccc2)C(=O)NCCCCC1=O has PAMPA 0.062 × 10^-6 cm/s.
CC(C)C[C@@H]1NC(=O)[C@H](C)NC(=O)C[C@@H](C)CCNC(=O)[C@H](Cc2ccccc2)NC1=O has PAMPA 0.066 × 10^-6 cm/s and Caco-2 14 × 10^-6 cm/s.
CC(C)C[C@@H]1NC(=O)CCCCNC(=O)[C@H](Cc2ccccc2)NC(=O)CN(C)C1=O has PAMPA 0.47 × 10^-6 cm/s.
CC(C)C[C@@H]1NC(=O)CN(C)C(=O)C[C@@H](C)CCNC(=O)[C@H](Cc2ccccc2)NC1=O has PAMPA 0.12 × 10^-6 cm/s and Caco-2 7.1 × 10^-6 cm/s.
CC(C)C[C@@H]1NC(=O)CN(C)C(=O)CC[C@@H](C)CNC(=O)[C@H](Cc2ccccc2)NC1=O has PAMPA 0.023 × 10^-6 cm/s and Caco-2 3.5 × 10^-6 cm/s.
CC(C)C[C@@H]1NC(=O)CN(C)C(=O)C[C@H](C)CCNC(=O)[C@H](Cc2ccccc2)NC1=O has PAMPA 0.021 × 10^-6 cm/s and Caco-2 2.8 × 10^-6 cm/s.
CC(C)CN1CC(=O)N[C@@H](Cc2ccccc2)C(=O)NCCC[C@@H](C)C(=O)N[C@@H](C)C1=O has PAMPA 0.72 × 10^-6 cm/s and Caco-2 11 × 10^-6 cm/s.
CC(C)C[C@@H]1NC(=O)[C@H](C)NC(=O)CC[C@@H](C)CNC(=O)CN(Cc2ccccc2)C1=O has PAMPA 0.21 × 10^-6 cm/s and Caco-2 21 × 10^-6 cm/s.
CC(C)C[C@@H]1NC(=O)[C@H](C)NC(=O)[C@@H](C)CCCNC(=O)[C@H](Cc2ccccc2)NC1=O has PAMPA 0.23 × 10^-6 cm/s and Caco-2 7.6 × 10^-6 cm/s.
CC(C)CN1CC(=O)N[C@@H](Cc2ccccc2)C(=O)NC[C@@H](C)CCC(=O)N[C@@H](C)C1=O has PAMPA 2.2 × 10^-6 cm/s and Caco-2 20 × 10^-6 cm/s.
CC(C)C[C@]1(C)NC(=O)[C@H](C)NC(=O)[C@@H](C)CCCNC(=O)[C@H](Cc2ccccc2)NC1=O has PAMPA 0.3 × 10^-6 cm/s.
CC(C)C[C@H]1NC(=O)[C@H](C)NC(=O)[C@@H](C)CCCNC(=O)[C@H](Cc2ccccc2)NC1=O has PAMPA 0.039 × 10^-6 cm/s.
CC(C)C[C@@H]1NC(=O)[C@H](C)NC(=O)CC[C@H](C)CNC(=O)[C@H](Cc2ccccc2)NC1=O has PAMPA 0.12 × 10^-6 cm/s and Caco-2 12 × 10^-6 cm/s.
CC(C)CN1CC(=O)N[C@@H](Cc2ccccc2)C(=O)NCC[C@@H](C)CC(=O)N[C@@H](C)C1=O has PAMPA 1.4 × 10^-6 cm/s and Caco-2 35 × 10^-6 cm/s.
CC(C)C[C@@H]1NC(=O)CN(C)C(=O)CC[C@H](C)CNC(=O)[C@H](Cc2ccccc2)NC1=O has PAMPA 0.23 × 10^-6 cm/s and Caco-2 11 × 10^-6 cm/s.
CC(C)C[C@@H]1NC(=O)[C@H](C)NC(=O)[C@H](C)CCCNC(=O)[C@H](Cc2ccccc2)NC1=O has PAMPA 0.23 × 10^-6 cm/s and Caco-2 19 × 10^-6 cm/s.
CC(C)C[C@@H]1NC(=O)[C@H](C)NC(=O)CC[C@@H](C)CNC(=O)[C@H](Cc2ccccc2)NC1=O has PAMPA 0.054 × 10^-6 cm/s and Caco-2 9.3 × 10^-6 cm/s.
CC(C)C[C@@H]1NC(=O)[C@H](C)NC(=O)CCC[C@@H](C)NC(=O)CN(Cc2ccccc2)C1=O has PAMPA 0.15 × 10^-6 cm/s and Caco-2 10 × 10^-6 cm/s.
CC(C)C[C@@H]1NC(=O)[C@H](C)NC(=O)C[C@@H](C)CCNC(=O)CN(Cc2ccccc2)C1=O has PAMPA 0.32 × 10^-6 cm/s and Caco-2 10 × 10^-6 cm/s.
CC(C)C[C@@H]1NC(=O)CN(C)C(=O)[C@@H](C)CCCNC(=O)[C@H](Cc2ccccc2)NC1=O has PAMPA 0.0046 × 10^-6 cm/s and Caco-2 2.6 × 10^-6 cm/s.
CC(C)CN1CC(=O)N[C@@H](Cc2ccccc2)C(=O)NCCC[C@H](C)C(=O)N[C@@H](C)C1=O has PAMPA 1.6 × 10^-6 cm/s and Caco-2 33 × 10^-6 cm/s.
CC(C)CN1CC(=O)N[C@@H](Cc2ccccc2)C(=O)N[C@@H](C)CCCC(=O)N[C@@H](C)C1=O has PAMPA 0.062 × 10^-6 cm/s and Caco-2 6 × 10^-6 cm/s.

A selection of 2 entries from above:

structure (SMILES)	PAMPA (10^-6 cm/s)	Caco-2 (10^-6 cm/s)
CC(C)C[C@@H]1NC(=O)[C@H](C)NC(=O)CC[C@H](C)CNC(=O)[C@H](Cc2ccccc2)NC1=O	0.12	12
CC(C)C[C@@H]1NC(=O)CN(C)C(=O)CC[C@H](C)CNC(=O)[C@H](Cc2ccccc2)NC1=O	0.23	11